# Data reported in article PMC5738438.
# Molecular target: Npm core+A2 truncation (1–145) (Xenopus laevis)
# Experiment: SEC-SAXS; complex of core+A2 and H2A/H2B purified by SEC, 4.83 mg/mL on Superdex 200 PC3.2/300, 5 mM DTT; Porod volume
substance,measurement,value
H2A/H2B dimer (from UniProt P06897 2-123; P02281 1-126) (complex),stoichiometry N (H2A/H2B dimers per Npm pentamer),5
